Binding of CDR-mutated scFvs to a peptide of the spike HR2 region

Data: MIT Lincoln Laboratory AlphaSeq set, Engelhart et al. 2022, doi:10.1038/s41597-022-01779-4, as distributed in FLAb.

The target is the same throughout: PDVDLGDISGINAS, from the HR2 region of SARS-CoV-2 spike.

Ab-95 is the parent antibody, in scFv form: VH, then three GGGGS repeats, then VL. The heavy chain is unchanged in all variants.
VH: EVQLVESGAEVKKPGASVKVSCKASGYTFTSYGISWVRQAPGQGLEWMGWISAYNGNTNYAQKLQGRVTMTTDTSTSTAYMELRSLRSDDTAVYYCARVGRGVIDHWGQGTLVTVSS
VL: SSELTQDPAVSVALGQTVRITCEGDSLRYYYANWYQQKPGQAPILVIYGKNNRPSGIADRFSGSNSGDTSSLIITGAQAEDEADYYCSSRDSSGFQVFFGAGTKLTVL

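The parent was found by panning a naive human phage display library on the peptide. Library AAYL52 holds single substitutions and randomly drawn double and triple substitutions in the CDRs. The scFvs were displayed on barcoded MATa yeast, the peptide on MATalpha yeast. Binding brings cells together so that they mate, and sequencing counts the barcode pairs among the diploids. The ratio of observed to expected reads was calibrated, replicate by replicate, on BCL2-family standards whose Kd was known from biolayer interferometry. Each pool was mated in three replicate cultures.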

Positions count from residue 1 of the parent VL; A32F puts F in place of A. The read-out is the apparent dissociation constant on a log10 scale (nM): the lower, the stronger. "n.d." means that the variant was in the library but no mating with the target was seen in that replicate; the authors take this as a sign of poor binding, and no number exists. As a blank, each scFv also met three strains without target: over library AAYL52, 28% of these pairings were detected, typically at 3.91 and seldom below 2.90. For each scFv, signals with the empty controls are counted beside the result, with their mean in brackets.

changes	replicates, log10 nM	control signals
A32F N52T G94Q	4.95 n.d. 4.69	4/9 (4.41)
R28A A32I P54Q	n.d. 3.21 4.06	1/9 (3.58)
Y30R F95D	2.49 2.47 2.61	3/9 (3.83)
E23Q K50N R90I	2.54 2.31 2.11	1/9 (3.97)
G24R N51L S89P	3.86 n.d. n.d.	3/9 (4.12)
D25N K50C S89F	4.31 3.56 3.49	3/9 (4.17)
Y29V Y31D S89C	1.42 1.41 1.13	3/9 (5.00)
G49H V97R F98Y	n.d. n.d. 4.50	2/9 (4.14)
Y30K K50L N51K	3.43 2.49 2.26	3/9 (3.66)
S26K R90I Q96P	n.d. n.d. n.d.	3/9 (3.42)
L27S S92R G94T	4.47 3.92 n.d.	3/9 (4.22)
E23G D25R S89G	2.72 2.44 2.21	2/9 (4.03)
Y29F F95Q	2.65 2.74 2.42	0/9
N52R D91T S93P	4.41 n.d. 4.15	7/9 (3.93)
S88F R90D D91R	3.65 n.d. 4.28	2/9 (3.69)
L27M S55N V97I	2.19 2.46 2.24	0/9
E23N P54H R90D	n.d. 4.11 n.d.	1/9 (3.68)
R28L N51Y R90D	n.d. n.d. n.d.	2/9 (4.01)
D25F L27W S55G	3.36 3.57 4.46	5/9 (3.69)
D25K S92C	2.40 2.40 2.09	3/9 (4.18)
S26W Y29W V97F	5.26 n.d. n.d.	1/9 (3.86)
N33G S88N S92Y	n.d. 3.85 n.d.	4/9 (4.38)
N52K Q96H V97M	3.35 4.04 2.60	5/9 (4.48)
G49W	2.81 n.d. n.d.	1/9 (3.21)
N33T P54G S89D	n.d. n.d. n.d.	1/9 (3.44)
K50A N52Q S88P	3.68 n.d. n.d.	5/9 (3.79)
G24M N33A G94L	n.d. n.d. n.d.	0/9
K50Q R90L	3.05 1.86 2.71	2/9 (3.71)
A32N K50Y S92L	n.d. n.d. n.d.	0/9
Y29T Y30I N52F	3.38 2.42 3.69	3/9 (4.57)
G24Y G49W S92R	3.92 n.d. n.d.	5/9 (3.74)
S26A S55E G94W	1.97 2.06 1.44	3/9 (3.89)
D25S P54I S92N	5.29 2.70 2.12	1/9 (4.81)
Y30A D91Q F95I	2.21 1.82 1.51	1/9 (3.58)
L27D N33D G94D	4.40 n.d. n.d.	4/9 (3.39)
N51W P54A Q96M	3.54 3.85 4.40	3/9 (3.82)
S26Y R90D V97L	n.d. n.d. 3.39	1/9 (3.46)
Y31F S55R	3.04 2.87 2.81	3/9 (3.95)
S26F K50R S55C	4.64 n.d. n.d.	5/9 (4.58)
A32K R90Y F95P	3.11 n.d. 3.54	3/9 (3.96)
Y30H K50F S92A	1.50 1.38 0.98	6/9 (4.36)

The opening 3 entries, copied out:

changes	replicates, log10 nM	control signals
A32F N52T G94Q	4.95 n.d. 4.69	4/9 (4.41)
R28A A32I P54Q	n.d. 3.21 4.06	1/9 (3.58)
Y30R F95D	2.49 2.47 2.61	3/9 (3.83)

Parent in this assay: reference entry 2.31, copy in this library 2.25.